# Assay outcomes (PubChem BioAssay)
# ARNT TACC3 PPI = ARNT/TACC3 interaction disruption; 390,000 tested, 0.66% active; AID 623870; inhibition, % at 9.99 µM; AlphaScreen His-ARNT PAS-B/GST-TACC3 binding, luminescence; TACC3 fragment carries E629A point mutation; Q9Y6A5;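 active = mean inhibition of replicates at least 50% and at least half of replicates each reaching 50%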;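 note: 0% = complete ARNT plus TACC3 wells and 100% = ARNT alone without TACC3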
# ERp5 block = inhibitors of human ERp5; 350,000 tested, 0.05% active; inhibition, % at 9.99 µM; ERp5 insulin aggregation, absorbance 650 nm, 90 min; AID 651711;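 active = mean replicate inhibition above about 25%, with every replicate also reaching it, limit read from the data, passing the limit was not always enough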
# PDI inh = inhibitors of human protein disulfide isomerase; PDI insulin aggregation turbidity, A650, 90 min; inhibition, % at 10 µM; 350,000 tested, 0.052% active; AID 588391;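 active = mean inhibition across replicates of 30% or more, whatever share of single replicates reach that level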
# UUG fidelity = modulators of yeast start codon fidelity, primary screen, whole organism, S. cerevisiae, single point, plate reader; S. cerevisiae UUG-firefly luciferase reporter, luminescence/redox ratio; activity score, % at 18.7 µM; actives 0.13% (n = 350,000); AID 602363, 2012;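 active = replicate mean at a twofold rise or more, about +100% in these data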;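 also: firefly luciferase made from a UUG start codon reports start codon fidelity; reporter light over untreated wells divided by growth signal over untreated wells; some hits fall short of that in this replicate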
# FGF22 binding = FGF22 (human) thermal shift binding | Q9HCT0 | recombinant FGF22 thermal shift, SYPRO orange fluorescence; percent of sucrose octasulfate shift, DMSO zero | activity (Tm shift, normalised), % at 9.99 µM | 340,000 tested, 1.5% active | AID 651658;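 active = mean Tm shift, scaled 0 neutral to 100 positive control, at about 1.3% or above, every replicate too, limit read from the data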
# PglD inh = inhibitors of Campylobacter jejuni PglD acetyltransferase; 360,000 tested, 0.098% active; purified PglD enzyme, DTNB colorimetric CoA detection; inhibition, % at 12.5 µM; AID 602405; in the data active = inhibition above about 16%, passing the limit was not always enough
# The depositor's hits bear a star; / = no result given. Shown are actives, neighbours in structure and some others; about 1.9% of the full set was active somewhere.
# Assay codes – A = ARNT TACC3 PPI; B = ERp5 block; C = PDI inh; D = UUG fidelity; E = FGF22 binding; F = PglD inh
[1] O=[N+]([O-])c1cccc(C2CC(c3ccccc3)=NN2c2ccccc2)c1 (stereo not given)
  A = 15	B = -8	C = -2	D = -22	E = 0	F = 3

[2] COc1ccc(NC(=O)Nc2ccc3c(c2)[C@@H]2C[C@H](CC(=O)NCc4ccc(-c5ccccc5)cc4)O[C@@H](CO)[C@@H]2O3)cc1
  A = -6	B = -3	C = /	D = -3	E = 0	F = 3

[3] O=C(/C=C/c1ccco1)N1CCCC(c2ccccc2)C1 (stereo not given)
  A = /	B = 7	C = -4	D = /	E = 44*	F = /

[4] O=C(/C=C/c1ccccc1)N1CCC(c2ccccc2)C1 (stereo not given)
  A = -4	B = 3	C = 0	D = -1	E = 0	F = 0

[5] N#Cc1c(N)n(C2OC(CO)C(O)C2O)c2ncnc(N)c12 (stereo not given)
  A = 6	B = 5	C = -6	D = /	E = 43*	F = /

[6] Nc1ncnc2c1ncn2C1OC(CO)C(O)C1O (stereo not given)
  A = 3	B = 1	C = -4	D = -16	E = 43*	F = -9

[7] CCCNC(=O)Nc1ccc2c(c1)OC[C@@H](C)N(CC1CCCC1)C[C@H](C)[C@@H](OC)CN(C)C2=O
  A = 4	B = 1	C = /	D = 7	E = /	F = -1

[8] CN1CCN(C(=O)C[C@@H]2CC[C@@H]3[C@@H](COc4ccc(NC(=O)C5CCC5)cc4C(=O)N3C)O2)CC1
  A = /	B = 3	C = /	D = /	E = 0	F = /

[9] Cc1ccc(C(NC(=O)NN2CCN(C)CC2)C(Cl)Cl)cc1F (stereo not given)
  A = -1	B = -1	C = 11	D = -22	E = 0	F = 0

[10] Cc1ccc(C(NC(=O)N2CCCC2)C(Cl)Cl)cc1F (stereo not given)
  A = -4	B = 4	C = -3	D = -5	E = 44*	F = /

[11] CCN1CCN(C(=O)NC(c2ccc(C)c(F)c2)C(Cl)Cl)CC1 (stereo not given)
  A = -6	B = 3	C = -8	D = -10	E = 44*	F = /

[12] C[C@@H]1CN([C@H](C)CO)C(=O)c2cc(C#CC3CCCCC3)cnc2O[C@@H]1CN(C)C(=O)Cc1ccccn1
  A = -1	B = 0	C = /	D = -5	E = 0	F = 0

[13] CCOc1ccc(N=Nc2ccc(O)c3ncccc23)cc1
  A = 5	B = -6	C = -8	D = -10	E = 0	F = -1

[14] CCOc1ccc2c(ccc(/C=C/c3cc(C)c4cccnc4c3O)[n+]2C)c1
  A = 65*	B = /	C = -10	D = /	E = /	F = /

[15] COC(=O)CSc1nnc(CNC(=O)c2ccccc2F)n1-c1ccc(F)cc1
  A = -13	B = -1	C = 12	D = /	E = 0	F = /

[16] CCSc1nnc(CNC(=O)c2ccccc2F)n1-c1ccccc1OC
  A = 4	B = 6	C = -5	D = -16	E = 43*	F = 6

[17] CC(C)(C)[C@H]1C=C(C(=O)N2CCCCCCC2)O[C@@H](OCc2ccc(CO)cc2)C1
  A = /	B = -2	C = /	D = /	E = 0	F = /

[18] COc1cccc(CSc2nnc(C(F)(F)F)n2Cc2ccc(F)cc2)c1
  A = -7	B = -5	C = 11	D = /	E = 0	F = /

[19] Nn1c(SCc2cccc(Oc3ccccc3)c2)nnc1C(F)(F)F
  A = -6	B = 3	C = 6	D = 0	E = 43*	F = /

[20] COc1ccc2c3c(n(C)c2c1)[C@@H](CO)N(Cc1ccccc1F)CC31CCN(CC2CC2)CC1
  A = /	B = 9	C = /	D = /	E = 0	F = /

[21] O=C1NC(=S)NC1=Cc1ccco1
  A = 60*	B = 3	C = 9	D = -18	E = 0	F = 4

[22] CN(C)c1ccc(NC2=C(Cl)C(=O)c3ccccc3C2=O)cc1
  A = 53*	B = -5	C = -9	D = -20	E = 0	F = -1

[23] COc1cc([N+](=O)[O-])ccc1NC(=O)NCc1ccco1
  A = 2	B = 1	C = 2	D = /	E = 44*	F = /

[24] C[C@@H]1CCCCO[C@H](CN(C)C(=O)CCC(F)(F)F)[C@@H](C)CN([C@@H](C)CO)C(=O)c2cc(NC(=O)Cc3ccccc3)ccc2O1
  A = -2	B = 0	C = /	D = 19	E = 0	F = 3

[25] O=C(Cn1cc(C(F)(F)F)ccc1=O)Nc1ccc2c(c1)OCO2
  A = /	B = -1	C = 12	D = -10	E = 43*	F = -1

# Reprinted from the part before: three entries, then new ones.
# Assay codes – A = ARNT TACC3 PPI; B = ERp5 block; C = PDI inh; D = UUG fidelity; E = FGF22 binding; F = PglD inh
[23] COc1cc([N+](=O)[O-])ccc1NC(=O)NCc1ccco1
  A = 2	B = 1	C = 2	D = /	E = 44*	F = /

[24] C[C@@H]1CCCCO[C@H](CN(C)C(=O)CCC(F)(F)F)[C@@H](C)CN([C@@H](C)CO)C(=O)c2cc(NC(=O)Cc3ccccc3)ccc2O1
  A = -2	B = 0	C = /	D = 19	E = 0	F = 3

[25] O=C(Cn1cc(C(F)(F)F)ccc1=O)Nc1ccc2c(c1)OCO2
  A = /	B = -1	C = 12	D = -10	E = 43*	F = -1

[26] c1cnc2c(SCc3ccc(-c4nnco4)cc3)cccc2c1
  A = 59*	B = /	C = -1	D = -2	E = /	F = /

[27] NNC(=O)c1ccc(CSc2cccc3cccnc23)cc1
  A = -3	B = 1	C = -4	D = -20	E = 0	F = 2

[28] O=C(N[C@@H]1CC[C@@H](CCn2cc(-c3ccccn3)nn2)O[C@H]1CO)c1ccncc1
  A = 62*	B = -4	C = /	D = -17	E = 0	F = -1

[29] Cc1cccc(S(=O)(=O)N[C@H]2CC[C@H](CCn3cc(-c4ccccn4)nn3)O[C@@H]2CO)c1
  A = /	B = -1	C = /	D = 4	E = 0	F = 1

[30] COc1ccc(NC(=O)N[C@@H]2CC[C@@H](CCn3cc(-c4ccccn4)nn3)O[C@H]2CO)cc1
  A = 61*	B = -1	C = /	D = -19	E = 0	F = -1

[31] COc1ccc(NC(=O)N[C@@H]2CC[C@@H](CCn3cc(-c4ccccn4)nn3)O[C@@H]2CO)cc1
  A = 48*	B = -4	C = /	D = -25	E = 0	F = -3

[32] O=S(=O)(N[C@@H]1CC[C@H](CCn2cc(-c3ccccn3)nn2)O[C@@H]1CO)c1cccc(F)c1
  A = 92*	B = -1	C = /	D = 3	E = 0	F = 5

[33] COc1ccc(NC(=O)N[C@H]2CC[C@H](CCn3cc(-c4ccccc4)nn3)O[C@H]2CO)cc1
  A = -11	B = -1	C = /	D = -14	E = 0	F = 5

[34] COCc1cn(CC[C@@H]2CC[C@@H](NC(=O)c3ccncc3)[C@@H](CO)O2)nn1
  A = 1	B = 7	C = /	D = -3	E = 0	F = 2

[35] NC(=O)NCC#Cc1ccc2c(c1)[C@]1(C(=O)N2)[C@H](c2ccccc2OCCO)N2[C@H](c3ccccc3)[C@H](c3ccccc3)OC(=O)[C@H]2[C@@H]1C(=O)N1CCN(c2ncccn2)CC1
  A = /	B = 8	C = /	D = /	E = 0	F = /

[36] BrC(/C=N/N1CCN(Cc2ccccc2)CC1)=C/c1ccccc1
  A = -3	B = 3	C = -4	D = -16	E = 0	F = 0

[37] CC(/C=N\N1CCN(Cc2ccc(C)cc2)CC1)=C\c1ccccc1
  A = 4	B = -2	C = 8	D = /	E = 44*	F = /

[38] O=C(Cc1c(Sc2ccccc2)c2ccccc2n1Cc1ccccc1)NCCO
  A = -2	B = 0	C = 4	D = /	E = 43*	F = /

[39] Cc1c(C(C)C)c(=O)n(-c2ccc(S(=O)(=O)NCc3ccccc3)cc2)n1C
  A = -7	B = -2	C = 2	D = /	E = 43*	F = /

[40] Cc1c(C(C)C)c(=O)n(-c2ccc(S(=O)(=O)NC3CCCCC3)cc2)n1C
  A = /	B = 1	C = 0	D = /	E = 0	F = /

[41] CCCNC(=O)N(C)C[C@@H]1Oc2cc(C3=CCCCC3)ccc2S(=O)(=O)N([C@@H](C)CO)C[C@@H]1C
  A = 4	B = 1	C = /	D = 1	E = 0	F = -3

[42] COc1cc(OC)cc(C(=O)N2CCN(Cc3ccccc3Br)CC2)c1
  A = -6	B = -3	C = 10	D = /	E = 43*	F = /

[43] CCNC(=O)[C@@H]1[C@@H](CO)[C@@H]2Cn3c(ccc(-c4ccc(OC)cc4)c3=O)[C@H]1N2S(C)(=O)=O
  A = -7	B = 4	C = /	D = /	E = 0	F = -2

[44] O=[N+]([O-])c1cccnc1NCc1cccs1
  A = -3	B = -2	C = -10	D = -17	E = 43*	F = -1

[45] C[C@@H]1CN([C@@H](C)CO)C(=O)Cc2cc(NS(C)(=O)=O)ccc2O[C@H]1CN(C)CC1CCCCC1
  A = 0	B = -2	C = /	D = 2	E = 0	F = 0

[46] CN(C)S(=O)(=O)Oc1ccsc1C(=O)Nc1ccc(Br)cc1
  A = /	B = -9	C = 6	D = /	E = 57*	F = /
